Source: patent US7435740B2 (dated 2008)

Protein sequences, listed by entry. Tags and fused reporters are not part of them.
UniProt P30542, whole entry: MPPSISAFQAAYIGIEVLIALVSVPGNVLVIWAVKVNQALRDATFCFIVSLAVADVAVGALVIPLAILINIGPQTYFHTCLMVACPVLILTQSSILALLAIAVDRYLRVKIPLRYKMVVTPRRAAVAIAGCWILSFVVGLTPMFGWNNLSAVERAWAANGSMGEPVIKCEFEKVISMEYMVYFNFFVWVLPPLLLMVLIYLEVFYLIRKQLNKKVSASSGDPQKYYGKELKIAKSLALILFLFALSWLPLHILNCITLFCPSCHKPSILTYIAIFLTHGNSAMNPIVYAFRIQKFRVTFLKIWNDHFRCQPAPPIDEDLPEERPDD

Legend:
[1] = target: human recombinant A1 adenosine receptor (Homo sapiens, UniProt P30542); assay: [3H]-DPCPX binding to human A1 adenosine receptor expressed in CHO cells
[2] = target: human recombinant A2A adenosine receptors (Homo sapiens, UniProt P29274); assay: Radioligand binding to hA2A receptors expressed in CHO cells

SMILES: CCCn1c(=O)c2c(nc3[nH]c(C)cn32)n(Cc2ccccc2)c1=O [Compound 10, 1-Benzyl-7-methyl-3-propyl-1H-imidazo[1,2-f]purine-2,4(3H,8H)-dione]
- Ki [1]: 2530 nM
- Ki [2]: > 5000 nM
